# Results: PubChem BioAssay AID588850 (Sanford-Burnham Center for Chemical Genomics, 2011)
# The list shows a part of the results, in another mix than the full data. Some salts or complexes appear as unconnected parts, following the source record. Activity calls are given as the source filed them.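 Rule for the calls: active = at least 50% inhibition at 5 µM, scaled per plate between neutral and stimulator controls; inactive = the rest.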
# Assay: NF-kB reporter blockers in CF airway cells – cell-based, GFP fluorescence, uHTS, primary screen (AID 588850);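 note: PAF is a Pseudomonas aeruginosa culture filtrate used as stimulus; plate controls were PAF-stimulated DMSO wells for no effect and unstimulated DMSO wells for full effect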
# Details: KKLEB NF-kB-GFP reporter, PAF-induced, GFP fluorescence overnight; at 5 µM; hits give high values
row,SMILES,inhibition
1,CP(=O)(OC12CC3CC(CC(C3)C1)C2)OC12CC3CC(CC(C3)C1)C2,inactive: -0.5%
2,CCOC(=O)c1ccc(NP(C)(=O)Oc2ccc(Cl)cc2)cc1 (stereo not drawn),inactive: -21.5%
3,CP(=O)(Nc1ccc(Cl)cc1)Oc1ccc(F)cc1 (stereo not drawn),inactive: 12.4%
4,CC(C)(C)c1ccc(OP(C)(=O)O)cc1,inactive: -1.6%
5,COc1ccccc1OP(C)(=O)Nc1ccccc1Br (stereo not drawn),inactive: 6.6%
6,CN(C)C(=O)c1c([N+](=O)[O-])cc([N+](=O)[O-])cc1[N+](=O)[O-],inactive: 12.6%
7,COc1ccc(OP(C)(=O)Nc2ccc(Br)cc2)cc1 (stereo not drawn),inactive: -2.3%
8,CCN(CC)CC(O)COC(=O)C(O)(c1ccccc1)C1CCCCC1 (stereo not drawn),inactive: -5.1%
9,CCc1ccc(OP(C)(=O)Nc2cccnc2)cc1 (stereo not drawn),inactive: 4.6%
10,CP(=O)(Oc1ccccc1)N1CCOC1=O (stereo not drawn),inactive: -11.1%
11,O=C(OCCCN1CCCC1)C(O)(c1ccccc1)C1CCCCC1 (stereo not drawn),inactive: 3%
12,COc1ccccc1OP(C)(=O)Nc1c(C)n(C)n(-c2ccccc2)c1=O (stereo not drawn),inactive: -3.3%
13,O=[N+]([O-])c1cc([N+](=O)[O-])c(Nc2ccccn2)c([N+](=O)[O-])c1,inactive: 9.8%
14,Cc1c(NP(C)(=O)Oc2ccc(C(C)C)cc2)c(=O)n(-c2ccccc2)n1C (stereo not drawn),inactive: -0.9%
15,CCc1ccc(OP(C)(=O)O)cc1,inactive: 4.7%
16,COc1ccccc1OP(C)(=O)Nc1ccc(C)cc1C (stereo not drawn),inactive: -0.9%
17,CP(=O)(Nc1ccccn1)Oc1ccccc1 (stereo not drawn),inactive: 8.3%
18,COc1ccccc1OP(C)(=O)Nc1ccc(Br)cc1 (stereo not drawn),inactive: 4.4%
19,CN(C)CCOC(=O)C(O)(c1ccccc1)C1CCCC1 (stereo not drawn),inactive: 10%
20,COc1ccc(OP(C)(=O)Nc2ccccn2)cc1 (stereo not drawn),inactive: 42.7%

row,SMILES,inhibition
1,CP(=O)(OCCOc1ccccc1)OCCOc1ccccc1,inactive: -13%
2,CP(=O)(Nc1ccc(Cl)cc1Cl)Oc1ccccc1 (stereo not drawn),inactive: 7.4%
3,CCCCCCCCCCCCCCCC1C[N+](C)(C)CCOP(C)(=O)O1 (stereo not drawn),inactive: 28%
4,Cc1cc(C)cc(OP(C)(=O)Nc2cccc(C(F)(F)F)c2)c1 (stereo not drawn),inactive: 19%
5,O=C1C(O)=C([N+](=O)[O-])C(=O)C(O)=C1[N+](=O)[O-],inactive: -14%
6,COc1ccc(OP(C)(=O)Nc2ccccc2Br)cc1 (stereo not drawn),inactive: 9.2%
7,COc1ccccc1OP(C)(=O)Nc1ccc(C)c(C)c1 (stereo not drawn),inactive: 2.3%
8,CCN(CC)CCCOC(=O)C(O)(c1ccccc1)C1CCCCC1 (stereo not drawn),inactive: -10.4%
9,Cc1c([N+](=O)[O-])cc([N+](=O)[O-])c(Br)c1[N+](=O)[O-],inactive: 0.1%
10,O=[N+]([O-])c1cc([N+](=O)[O-])c(OC2CCCCC2O)c([N+](=O)[O-])c1 (stereo not drawn),inactive: -10.5%
11,CCCCCOc1ccc(NP(C)(=O)Oc2ccc(Cl)cc2Cl)cc1 (stereo not drawn),inactive: -7.1%
12,CP(=O)(Nc1ccccc1)Oc1ccc(F)cc1 (stereo not drawn),inactive: 13.7%
13,COc1ccc(OP(C)(=O)Nc2ccc(SC(F)(F)F)cc2)cc1 (stereo not drawn),inactive: -10.2%
14,CCOC(=O)c1ccc(NP(C)(=O)Oc2ccc(F)cc2)cc1 (stereo not drawn),inactive: 3.2%
15,O=C(OCCN1CCN(CCOCc2ccccc2)CC1)C(O)(c1ccccc1)c1ccccc1,inactive: 0.6%
16,O=C(OC1CN2CCC1CC2)c1ccc([N+](=O)[O-])cc1 (stereo not drawn),inactive: -3%
17,COc1ccc2c(c1O)-c1c(O)c(OC)cc3c1[C@H](C2)[N+](C)(C)CC3.O=[N+]([O-])c1cc([N+](=O)[O-])c([O-])c([N+](=O)[O-])c1[O-],inactive: 0.2%
18,O=[N+]([O-])c1cc([N+](=O)[O-])c(Nc2ccc(Cl)cc2)c([N+](=O)[O-])c1,inactive: 29.2%
19,CC(C)c1ccc(OP(C)(=O)Nc2ccc(SC(F)(F)F)cc2)cc1 (stereo not drawn),inactive: 9.5%
20,CP(=O)(Nc1ccccc1F)Oc1ccccc1 (stereo not drawn),inactive: 4.2%

row,SMILES,inhibition
1,CP(=O)(Nc1ccc2c(c1)OCCO2)Oc1ccccc1 (stereo not drawn),inactive: -0.1%
2,Cc1ccccc1NP(C)(=O)Nc1ccccc1C,inactive: -17.3%
3,CP(=O)(Nc1ccc(SC(F)(F)F)cc1)Oc1ccc(F)cc1 (stereo not drawn),inactive: -1.6%
4,CCOP(C)(=S)SCC(=O)NC(C)(CC)C(=O)O (stereo not drawn),inactive: 2.2%
5,Cc1cc(-c2cccc3ccccc23)c(C)cn1.O=[N+]([O-])c1cc([N+](=O)[O-])c(O)c([N+](=O)[O-])c1,inactive: 0.9%
6,O=[N+]([O-])c1cc([N+](=O)[O-])c(NCC2CCS(=O)(=O)C2)c([N+](=O)[O-])c1 (stereo not drawn),inactive: 25.1%
7,O=[N+]([O-])c1ccc(OP2(=O)COCCO2)cc1 (stereo not drawn),inactive: 1.4%
8,Cc1c(C(c2ccc3c(c2)OCO3)c2c(C)n(C)n(-c3ccccc3)c2=O)c(=O)n(-c2ccccc2)n1C.O=[N+]([O-])c1cc([N+](=O)[O-])c(O)c([N+](=O)[O-])c1,inactive: 19%
9,COc1ccc(OP(C)(=O)Nc2cccc(Br)c2)cc1 (stereo not drawn),inactive: -6.9%
10,COc1ccc(NP(C)(=O)Oc2ccccc2OC)cc1 (stereo not drawn),inactive: 4.2%
11,CN(C)CCOC(=O)C(O)(c1ccccc1)C1CCCCC1 (stereo not drawn),inactive: 4.3%
12,CN1CCCCC1COC(=O)C1(O)c2ccccc2CCc2ccccc21 (stereo not drawn),inactive: 4.5%
13,COc1ccccc1OP(C)(=O)Nc1c(C)cccc1C (stereo not drawn),inactive: -13.9%
14,CP(=O)(Nc1ccc(SC(F)(F)F)cc1)Oc1ccccc1 (stereo not drawn),inactive: -13.6%
15,CCCOc1ccc(NP(C)(=O)Oc2ccc(Cl)cc2)cc1 (stereo not drawn),inactive: 2.5%
16,CCOC(=O)C(CC)C1=NC(C)(C)Cc2ccccc21.O=[N+]([O-])c1cc([N+](=O)[O-])c(O)c([N+](=O)[O-])c1 (stereo not drawn),inactive: -17.9%
17,O=[N+]([O-])c1cc([N+](=O)[O-])c(Nc2nnnn2CCO)c([N+](=O)[O-])c1,inactive: 0.5%
18,CC1=C2N=C(C=C3N=C(C(C)=C4[N-][C@@](C)([C@@H]5N=C1[C@](C)(CCC(=O)NC[C@@H](C)OP(=O)([O-])O[C@H]1[C@@H](O)[C@@H](n6cnc7cc(C)c(C)cc76)O[C@@H]1CO)[C@H]5CC(N)=O)[C@@](C)(CC(N)=O)[C@@H]4CCC(N)=O)[C@@](C)(CC(N)=O)[C@@H]3CCC(N)=O)C(C)(C)[C@@H]2CCC(N)=O.[C-]#N.[Co+3],inactive: -12.1%
